Publication PMC9293779, “Elucidation of binding preferences of YEATS domains to site-specific acetylated nucleosome core particles” (The Journal of Biological Chemistry, 2022)

Key:
[1] = target: T1, YEATS2-YEATS (Homo sapiens, UniProt Q9ULM3); assay: Isothermal titration calorimetry, YEATS2-YEATS; assay type: binding; details: 15 °C, 20 mM Tris-HCl pH 7.6, 500 mM NaCl; 100 μM protein, 1 mM peptide
T1 construct: For ITC experiments, the cDNAs encoding AF9-YEATS (residues 1–138) and YEATS2-YEATS (200–349) were inserted into the same vector; polyhistidine tag (N); GST (N); made in house
T1 sequence (Q9ULM3 200-349): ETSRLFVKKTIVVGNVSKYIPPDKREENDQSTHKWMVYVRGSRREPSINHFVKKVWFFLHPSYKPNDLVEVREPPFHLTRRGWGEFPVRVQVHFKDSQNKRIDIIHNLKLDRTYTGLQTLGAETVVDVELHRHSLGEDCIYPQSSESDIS

[2] = target: T1, YEATS2-YEATS; assay: Peptide array-based binding assay, YEATS2-YEATS; details: 10 μM YEATS domain, 4 °C overnight, anti-GST/HRP chemiluminescence
Method: For the assay using the MODified Histone Peptide Array, the same cDNA sequences encoding human YEATS domains were amplified by PCR and subcloned into a pCR2.1 vector with a GST-encoding sequence inserted after an N-terminal polyhistidine tag. For microscale thermophoresis measurements, a similar construct but without GST was used. Site-directed mutagenesis of AF9-YEATS (residues 1–138) was conducted by PCR using the DpnI restriction enzyme and the following primer sets: 5′-CCTTCACGCATCCTTTCCTCGTCCTAAAC-3′ (forward) and 5′-GGAAAGGATGCGTGAAGGTGAAACACCAC-3′ (reverse) for E57A and 5′-CGACTATGACCTGTTTCTGCATCTCG-3′ (forward) and 5′-GCAGAAACAGTGCATAGTCGAAGCGAAC-3′ (reverse) for D103A. The introduced mutations were verified by DNA sequencing. For X-ray structural analysis, the cDNAs encoding AF9-YEATS (residues 1–138) and YEATS2-YEATS (202–338) were amplified by PCR and subcloned into the pCR2.1 vector encoding GST and the polyhistidine tag. […]
Assays were performed using the MODified Histone Peptide Array (Active Motif) following the manufacturer’s protocol. […] Protein binding was detected by Chemi-Lumi One Super (Nacalai Tesque). Signal intensities were quantified by using the Protein Array Analyzer for ImageJ (written by Gilles Carpentier, 2010. The macro is available online: http://rsb.info.nih.gov/ij/macros/toolsets/Protein Array Analyzer.txt).

- binding (ITC) [1]: did not bind
- binding on MODified Histone Peptide Array [2]: weakly and nonreproducibly bound
Substance: K27ac-containing H3 (15–39) peptide: histone H3 (15–39) peptide acetylated on K27
